This passage reports BH4% in liver and BH4% in kidney results from article PMC5053593, “Tetrahydrobiopterin Supplementation: Elevation of Tissue Biopterin Levels Accompanied by a Relative Increase in Dihydrobiopterin in the Blood and the Role of Probenecid-Sensitive Uptake in Scavenging Dihydrobiopterin in the Liver and Kidney of Rats” (PLoS ONE, 2016).

Counter-ions that a name gives are not always drawn.

For the series the following is noted: both, Sprague-Dawley, rat, in vivo. The procedure: Each blood sample was divided into three portions; one served as a “whole blood” specimen, the second was for the hematocrit determination, and the third was centrifuged (10,000 rpm, 4°C, 5 min) to separate red blood cells (RBCs) from the plasma. The whole blood, plasma, and RBCs were separately subjected to differential iodine oxidation for the BP determination described below. The results were expressed as the amount of BP per unit volume of the original blood sample (plasma + RBC, mL) based on the hematocrit value. […] However, for the brain, the BP carryover was estimated using an average blood inclusion of 1.2% (v/w), which was determined by a comparison of the heme content of the blood and brain homogenates based on light absorbance at 415 nm.
Biopterin was determined essentially according to Fukushima and Nixon and modified as described previously. […] With their method, the biopterin quantity remaining after the acid-oxidation was taken as the total biopterin (BP = “BH4” + “BH2” + “oxidized biopterin”) and that which remained after the alkaline-oxidation, as 7,8-dihydrobiopterin (BH2) plus oxidized biopterin. […] Accordingly, in this study, the biopterin amount measured after the acid iodine oxidation was taken as the sum of “BH4” and “BH2” (“BP” = “BH2” + “BH4”), and that after the alkaline oxidation, as the amount of “BH2”. […]

Turning to `C[C@H](O)[C@H](O)[C@H]1CNc2nc(N)[nH]c(=O)c2N1` [6RBH4, (6R)-L-erythro-5,6,7,8-tetrahydrobiopterin dihydrochloride], the BH4% in liver (30 min) was determined as 98.7 ±0.1%. This compound gave a BH4% in kidney (120 min) of 98.6 ±0.3%.
